Here are results for two compounds from PubChem BioAssay AID2102 (Southern Research Specialized Biocontainment Screening …, 2009).

As usually defined, the viability is a read-out of living cells in per cent, often relative to untreated cells.

Only a part is listed here, and it is no random draw. Potency and affinity values are given separately. The source made the active and inactive calls. How the calls were made is not given here.

The nature of the assay: host cell cytotoxicity, dose response, cytotoxicity control for SV40 T antigen inhibitor project, selected hits (AID 2102).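 Further: cells exposed to compounds for 72 hours; 100% = mean of untreated cell control wells.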 As to conditions: Host cell viability cytotoxicity counter-screen; at 50 µM (top of the series). (In general: Counterscreens check selectivity or assay interference.)
As to `COc1ccc(NC2CCN(C(=O)OC(C)(C)C)CC2)cc1`, the viability is inactive: 85.4%.

Take `CCOC(=O)N1CCC(Nc2ccc(OC)cc2)CC1`: the viability is inactive: 108%.
